Measurements published in publication PMC3988658 (Pathogens and disease, 2014).

How the values were obtained:
[1] = in vitro; conditions: human, CC50 (μM)
[2] = system: Human hepatocellular carcinoma (HepG2) cells

Compound | CC50 [1] [µM] | CC50 [2] [nM]
CC(=O)O[C@@H]1C[C@H]2O[C@@H]3C=C(C)CC[C@]3(C)[C@]1(C)[C@]21CO1 [Compound 1, Trichoderonin] | < 1.56 | –
COc1ccc(C[C@H]2NC[C@H](O)[C@H]2OC(C)=O)cc1 [Compound 2, Anisomycin] | 0.82 | < 1560
